Reference: BindingDB's records for doi:10.1007/BF02244985 (Mayo Clinic, 1994)

Sequences of proteins named here, by UniProt entry; tags and fusion partners are left off.
UniProt P08913, whole entry: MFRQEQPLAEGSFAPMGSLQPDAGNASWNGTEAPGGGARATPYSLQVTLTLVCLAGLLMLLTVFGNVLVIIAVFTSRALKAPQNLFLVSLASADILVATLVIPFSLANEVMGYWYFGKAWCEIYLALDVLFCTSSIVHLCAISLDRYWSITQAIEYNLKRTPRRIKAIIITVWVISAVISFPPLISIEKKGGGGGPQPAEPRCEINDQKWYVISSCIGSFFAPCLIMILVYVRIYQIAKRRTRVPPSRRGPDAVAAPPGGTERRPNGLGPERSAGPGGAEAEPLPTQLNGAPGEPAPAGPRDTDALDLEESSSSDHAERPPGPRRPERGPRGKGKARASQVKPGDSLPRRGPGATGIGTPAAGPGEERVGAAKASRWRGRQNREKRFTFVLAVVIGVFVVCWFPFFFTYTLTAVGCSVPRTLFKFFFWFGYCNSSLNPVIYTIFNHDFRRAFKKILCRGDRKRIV

Biological target: Alpha-2A adrenergic receptor (Homo sapiens, UniProt P08913)

Ki: 640 nM
SMILES: CCc1nn(CCCN2CCN(c3cccc(Cl)c3)CC2)c(=O)n1CCOc1ccccc1 [2-{3-[4-(3-chlorophenyl)piperazin-1-yl]propyl}-5-ethyl-4-(2-phenoxyethyl)-2,4-dihydro-3H-1,2,4-triazol-3-one]
